The data set concerns the molecule itself. Description: detergent insolubility assay.

B1: Recombinant human 2N4R tau, P301L (natural protein)
chain: not shown
For the protein B1, the binding result is “binds”.

The values above are taken from doi:10.1101/2020.06.18.159301 (bioRxiv, 2020).
